# Biological target: T1, Replicase polyprotein 1ab (Severe acute respiratory syndrome coronavirus 2, UniProt P0DTD1)
# Experiment: Inhibition of His/SUMO tagged SARS-CoV2 main protease expressed in Escherichia coli BL21 (DE3) cells using DABCYL-Lys-Thr-Ser-Ala-Val-Leu-Gln-Ser-Gly-Phe-Arg-Lys-Met-Glu-EDANS as fluorogenic substrate preincubated for 30 mins followed by substrate addition and measured after 30 mins by fluorescence plate reader analysis
row,SMILES,IC50
1,CC(C)(C)CC(=O)N[C@H](C(=O)N1C[C@H]2[C@@H]([C@H]1C(=O)N[C@@H](C[C@@H]1CCNC1=O)C(=O)C(N)=O)C2(C)C)C(C)(C)C,0.15 µM
2,CC(C)(C)NC(=O)N[C@H](C(=O)N1CC2(CC2)C[C@H]1C(=O)N[C@H](C=O)C[C@@H]1CCNC1=O)C(C)(C)C,0.023 µM
3,CC(C)(C)C[C@H](NC(=O)[C@@H](NC(=O)NC(C)(C)C)C(C)(C)C)C(=O)N[C@H](C=O)C[C@@H]1CCNC1=O,0.017 µM

# Biological target: T1, Replicase polyprotein 1ab
# Experiment: Inhibition of eGFP fused SARS-CoV2 main protease transfected in HEK293T/17 cells incubated for 72 hrs by fluorescence based flow cytometry analysis
# Assay type: cell-based
row,SMILES,EC50
1,CC(C)(C)[C@H](NC(=O)OCc1ccccc1)C(=O)N1C[C@H]2[C@@H]([C@H]1C(=O)N[C@H](C=O)C[C@@H]1CCNC1=O)C2(C)C,0.31 µM
2,CC(C)(C)CC(=O)N[C@H](C(=O)N1C[C@H]2[C@@H]([C@H]1C(=O)N[C@@H](C[C@@H]1CCNC1=O)C(=O)C(N)=O)C2(C)C)C(C)(C)C,7.7 µM
3,C[C@@H](OC(C)(C)C)[C@H](NC(=O)OCc1ccccc1)C(=O)N1C[C@H]2[C@@H]([C@H]1C(=O)N[C@H](C=O)C[C@@H]1CCNC1=O)C2(C)C,0.14 µM
4,C[C@@H](OC(C)(C)C)[C@H](NC(=O)NC(C)(C)C)C(=O)N[C@@H](CC1CCCCC1)C(=O)N[C@H](C=O)C[C@@H]1CCNC1=O,0.74 µM
